In the assay the target is 5-hydroxytryptamine receptor 2A (Rattus norvegicus, UniProt P14842). Nature of the assay: In vitro affinity towards 5-hydroxytryptamine 2A receptor using [3H]spiroperidol as radioligand in cortex.

Amino acid sequences for entries named in this document (tags omitted).
UniProt P14842, whole entry: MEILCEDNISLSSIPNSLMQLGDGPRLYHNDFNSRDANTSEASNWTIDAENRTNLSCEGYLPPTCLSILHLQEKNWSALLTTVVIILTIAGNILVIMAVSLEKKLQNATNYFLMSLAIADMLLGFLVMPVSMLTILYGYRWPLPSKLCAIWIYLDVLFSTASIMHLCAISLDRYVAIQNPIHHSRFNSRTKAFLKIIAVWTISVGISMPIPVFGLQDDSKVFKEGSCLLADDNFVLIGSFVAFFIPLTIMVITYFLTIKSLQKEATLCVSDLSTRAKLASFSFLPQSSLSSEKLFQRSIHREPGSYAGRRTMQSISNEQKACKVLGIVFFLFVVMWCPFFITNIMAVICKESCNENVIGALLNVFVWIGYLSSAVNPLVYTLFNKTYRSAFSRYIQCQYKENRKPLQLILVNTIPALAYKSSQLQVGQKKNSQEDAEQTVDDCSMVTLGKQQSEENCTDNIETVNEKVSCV

The term IC50 denotes the concentration that gives 50% inhibition.

Consider `COc1ccccc1N1CCN(CCCCN(C)C(=O)c2nsc3ccccc23)CC1`, for which the 50% inhibitory concentration (IC50) came out at 125 nM.

The record behind these values is ChEMBL document CHEMBL1127849, “Benzisoxazole- and benzisothiazole-3-carboxamides as potential atypical antipsychotic agents” (J Med Chem, 1994).
